Experiments:
ATM [1] = molecular target: T1, ATM (Homo sapiens, UniProt Q13315); assay: Western blot of pATM, pKAP1 and pCHK2 in irradiated H1299 shGFP cells; type: cell-based; conditions: irradiated (4 Gy) H1299 shGFP knockdown cells, inhibitor 1 h before irradiation, relative to DMSO control
T1 construct: endogenous in cells; host or cells: H1299 shGFP and shATM cells
Protocol: (§1) H1299 non-small cell lung cancer cells, either wild type or stably transfected with short hairpin RNA for ATM (shATM) or GFP (shGFP, as a control) expression knockdown, were kindly gifted by Dr Anderson Ryan at the University of Oxford. All cells were cultured at 37 °C and 5% CO2 in Dulbecco’s modified Eagle medium (DMEM) supplemented with 10% foetal bovine serum (FBS) (Gibco, USA), 2 mM L-glutamine, 100 units/mL penicillin, and 100 µg/mL streptomycin (PSG) (Sigma-Aldrich); knockdown cell lines were additionally supplemented with 0.5 μg/mL puromycin dihydrochloride (Merck Life Science, UK). Cells were originally purchased from ATCC and were authenticated by the provider and by STR profiling. Cells were tested regularly for the absence of mycoplasma contamination and were cultured for a maximum of 20 passages after resuscitation from liquid nitrogen storage.
Western blot analysis was performed to compare the total ATM expression between cell models, in addition to expression of phospho-ATM^S1981 (pATM), phospho-KAP1^S824 (pKAP1), and phospho-CHK2^T68 (pCHK2) expression to assess the effect of irradiation and ATM inhibition on ATM catalytic activity. Cells were irradiated (4 Gy; 0.75 Gy/min) or sham-irradiated and incubated at 37 °C for 1 h before harvesting cells for lysis and blotting (full details in supporting information). […]

Amino acid sequences for entries named in this document (tags omitted). A change or cut given only in a name is not applied to a line headed by its entry.
UniProt Q13315: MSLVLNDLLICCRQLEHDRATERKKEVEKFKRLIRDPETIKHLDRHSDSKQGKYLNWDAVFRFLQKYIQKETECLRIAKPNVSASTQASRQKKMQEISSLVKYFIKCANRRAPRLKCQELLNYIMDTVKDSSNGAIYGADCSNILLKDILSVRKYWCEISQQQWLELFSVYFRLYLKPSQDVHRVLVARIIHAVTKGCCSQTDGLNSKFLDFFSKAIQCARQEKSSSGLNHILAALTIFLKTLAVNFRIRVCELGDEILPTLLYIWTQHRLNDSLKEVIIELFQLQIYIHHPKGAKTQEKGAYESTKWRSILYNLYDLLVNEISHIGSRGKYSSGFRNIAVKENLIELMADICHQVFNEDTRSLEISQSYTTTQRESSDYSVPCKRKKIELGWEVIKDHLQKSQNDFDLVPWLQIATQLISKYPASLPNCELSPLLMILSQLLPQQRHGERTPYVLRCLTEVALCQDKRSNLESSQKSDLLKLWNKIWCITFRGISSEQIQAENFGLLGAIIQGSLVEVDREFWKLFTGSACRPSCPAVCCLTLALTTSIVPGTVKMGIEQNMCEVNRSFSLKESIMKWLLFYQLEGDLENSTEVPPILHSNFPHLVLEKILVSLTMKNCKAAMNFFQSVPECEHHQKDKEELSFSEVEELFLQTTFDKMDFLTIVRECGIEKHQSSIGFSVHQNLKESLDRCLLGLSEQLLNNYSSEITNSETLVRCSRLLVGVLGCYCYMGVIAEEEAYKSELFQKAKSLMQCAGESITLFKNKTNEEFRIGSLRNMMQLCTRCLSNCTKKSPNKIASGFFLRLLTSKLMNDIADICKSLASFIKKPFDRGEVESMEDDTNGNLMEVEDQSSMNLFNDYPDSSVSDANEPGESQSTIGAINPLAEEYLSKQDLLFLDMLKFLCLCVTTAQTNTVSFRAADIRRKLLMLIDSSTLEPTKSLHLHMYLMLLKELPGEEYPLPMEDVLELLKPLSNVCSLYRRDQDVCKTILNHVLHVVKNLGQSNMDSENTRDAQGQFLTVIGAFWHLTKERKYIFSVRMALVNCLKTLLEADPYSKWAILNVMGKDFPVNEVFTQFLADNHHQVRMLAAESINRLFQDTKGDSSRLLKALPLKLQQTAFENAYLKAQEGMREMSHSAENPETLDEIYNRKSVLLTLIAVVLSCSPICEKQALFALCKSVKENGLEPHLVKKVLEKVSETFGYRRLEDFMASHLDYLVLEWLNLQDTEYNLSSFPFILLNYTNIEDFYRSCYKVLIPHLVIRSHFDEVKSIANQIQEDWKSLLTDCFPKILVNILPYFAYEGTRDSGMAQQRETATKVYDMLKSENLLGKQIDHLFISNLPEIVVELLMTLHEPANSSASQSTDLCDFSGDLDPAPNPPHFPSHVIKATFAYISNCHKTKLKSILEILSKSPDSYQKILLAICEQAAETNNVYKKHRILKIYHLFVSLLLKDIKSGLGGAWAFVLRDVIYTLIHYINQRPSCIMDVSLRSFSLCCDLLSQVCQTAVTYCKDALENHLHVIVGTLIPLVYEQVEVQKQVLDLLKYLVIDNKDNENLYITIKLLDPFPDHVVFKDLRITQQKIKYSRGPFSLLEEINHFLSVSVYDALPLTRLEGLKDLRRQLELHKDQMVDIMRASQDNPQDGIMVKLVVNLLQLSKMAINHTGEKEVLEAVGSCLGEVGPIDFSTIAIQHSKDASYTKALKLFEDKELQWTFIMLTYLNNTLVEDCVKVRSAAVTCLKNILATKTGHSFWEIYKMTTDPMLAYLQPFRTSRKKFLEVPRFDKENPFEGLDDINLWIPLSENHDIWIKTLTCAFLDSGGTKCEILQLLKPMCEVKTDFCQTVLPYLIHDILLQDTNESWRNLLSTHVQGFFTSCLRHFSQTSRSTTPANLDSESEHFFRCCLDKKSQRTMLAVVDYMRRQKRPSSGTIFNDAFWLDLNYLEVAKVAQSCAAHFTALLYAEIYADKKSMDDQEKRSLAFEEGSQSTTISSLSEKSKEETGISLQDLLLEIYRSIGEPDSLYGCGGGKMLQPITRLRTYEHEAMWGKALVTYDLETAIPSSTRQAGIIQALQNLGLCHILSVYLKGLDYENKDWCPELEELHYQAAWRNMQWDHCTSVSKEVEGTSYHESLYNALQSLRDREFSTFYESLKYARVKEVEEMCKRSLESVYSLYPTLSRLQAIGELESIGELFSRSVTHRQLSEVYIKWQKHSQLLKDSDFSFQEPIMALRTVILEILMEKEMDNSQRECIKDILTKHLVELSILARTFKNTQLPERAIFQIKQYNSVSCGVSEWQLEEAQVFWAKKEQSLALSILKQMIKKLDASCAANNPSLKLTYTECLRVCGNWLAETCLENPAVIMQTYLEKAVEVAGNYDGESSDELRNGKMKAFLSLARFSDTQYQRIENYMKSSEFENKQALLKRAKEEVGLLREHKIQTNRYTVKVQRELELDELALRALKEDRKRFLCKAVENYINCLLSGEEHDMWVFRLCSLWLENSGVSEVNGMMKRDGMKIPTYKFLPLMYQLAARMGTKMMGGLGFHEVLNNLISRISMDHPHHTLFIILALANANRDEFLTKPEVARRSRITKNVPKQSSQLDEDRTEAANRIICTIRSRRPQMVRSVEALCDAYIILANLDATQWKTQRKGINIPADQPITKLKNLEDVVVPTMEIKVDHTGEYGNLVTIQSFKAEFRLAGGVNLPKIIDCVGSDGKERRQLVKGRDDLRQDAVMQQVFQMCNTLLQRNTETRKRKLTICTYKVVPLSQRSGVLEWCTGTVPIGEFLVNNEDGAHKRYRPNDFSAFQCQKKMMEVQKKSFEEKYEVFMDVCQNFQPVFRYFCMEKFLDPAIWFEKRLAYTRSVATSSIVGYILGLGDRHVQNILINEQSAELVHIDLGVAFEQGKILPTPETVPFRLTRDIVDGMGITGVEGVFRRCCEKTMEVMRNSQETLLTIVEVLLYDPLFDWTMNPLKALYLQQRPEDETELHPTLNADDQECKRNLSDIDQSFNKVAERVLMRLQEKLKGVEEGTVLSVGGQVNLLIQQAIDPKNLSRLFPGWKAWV

ATM [2] = molecular target: T1, ATM; assay: Blocking of [18F]1 cell-associated activity by non-radioactive ATM inhibitors; type: cell-based
Protocol: as §1
Blocking studies followed the same procedure as uptake with 1 h tracer incubation; however, the replacement media contained the blocking agent at the indicated concentrations in no greater than 10% DMSO, and a DMSO control was also run in parallel at the highest DMSO concentration used, followed by incubation at 37 °C and 5% CO2 for 1 h before irradiation.

Compound: CN(C)CCCOc1ccc(-c2ccc3ncc4c(c3c2)n(C2CCOCC2)c(=O)n4C)cn1 [AZD0156, 8-{6-[3-(Dimethylamino)propoxy]pyridin-3-yl}-3-methyl-1-(tetrahydro-2 H-pyran-4-yl)-1,3-dihydro-2 H-imidazo[4,5-c]quinolin-2-one]
- pATM expression and downstream targets pKAP1 and pCHK2, western blot (ATM [1]): decrease in pATM expression
- effect on [18F]1 cell-associated activity at high molar excess (ATM [2]; 1000 nM inhibitor, compared to DMSO control): increase in cell-associated activity
- effect on [18F]1 cell-associated activity at lower inhibitor concentrations (ATM [2]; 0.1–10 nM inhibitor, H1299 shATM and shGFP cells): initial blocking effect
